Measured values reported in patent US20040014209A1, “Compositions and methods for modulating cell differentiation” (priority 2002, published 2004).

Test system: APMEE explants
Experiment: APMEE explant culture, cardiac gene expression by RT-PCR
Format: cell-based, chick
From the text: FIG. 1, panels A-D, illustrates the relative positions of tissues employed in this study. […] We dissected anterior paraxial mesendoderm and ectoderm (APMEE; FIG. 1C) from stage 8-9 chick embryos and cultured this tissue either alone or in the presence of the adjacent neural tube and notochord (FIG. 1E). When cultured in the presence of the axial tissues, APMEE explants neither beat nor expressed the cardiac markers Nkx-2.5, GATA-4, vMHC, and cMHC-1 (FIG. 1G, lane 1). The latter gene is a chick myosin heavy-chain isoform expressed exclusively within the heart (Croissant et al. 2000). […] Although anterior paraxial mesoderm is fated to give rise to both head mesenchyme and skeletal muscles (Christ and Ordahl 1995), the skeletal muscle regulators, MyoD and Myf-5, were not expressed in APMEE explants that expressed cardiac markers after 48 h culture in vitro (FIG. 1G, lane 2). Thus, after 48 h in culture, explanted APMEE gives rise to cardiac but not skeletal muscle tissue. […]
Wnt-1 and Wnt-3a are expressed in the open neural plate and dorsal neural tube adjacent to the anterior paraxial mesoderm (FIG. 2, panels A, B). […] In addition to expression of Wnt family members in the neural tube, we detected expression of Frizzled-1, β-catenin, and Lef1, all of which are components of the Wnt signaling cascade, in APMEE explants (FIG. 1G, lanes 1, 2). […]

B1: BMP-2: Human recombinant BMP-2 (protein, UniProt P12643 283-396, looked up)
Bone morphogenetic protein 2: QAKHKQRKRLKSSCKRHPLYVDFSDVGWNDWIVAPPGYHAFYCHGECPFPLADHLNSTNHAIVQTLVNSVNSKIPKACCVPTELSAISMLYLDENEKVVLKNYQDMVVEGCGCR
Question: B1 was tested. Which “Cardiogenic response / cardiac marker expression” value (APMEE cultured with only the dorsal neural tube) did it give?
Answer: induced GATA-4 and Nkx2.5 yet failed to elicit expression of cMHC-1

Question: And the “Cardiac marker expression (Nkx-2.5, GATA-4, vMHC, cMHC-1)” value (APMEE plus neural tube and notochord explants, 48 h)?
Answer: induced higher levels of Nkx-2.5 but, similarly, failed to induce expression of either GATA-4 or vMHC
